The experiment deals with Coagulation factor X (Homo sapiens, UniProt P00742). The experiment is described as follows: Inhibition of human factor 10a using N-Z-D-Arg-Gly-Arg-pNA, S-2765 chromogenic substrate. The method, boiled down:
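Human enzyme and inhibitor were premixed and preincubated, then the chromogenic substrate was added. Substrate levels: 300 μM S-2765 (FXa, trypsin); 200 μM S-2366 (FIIa); 2 mM S-2366 (FVIIa, FXIa). pNA release was monitored continuously at 405 nm for 20 min at 37 °C. IC50 was obtained by nonlinear regression.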

Sequences of proteins named here, by UniProt entry; tags and fusion partners are left off. Residues count along the entry.
UniProt P00742, 41-179 limits assumed: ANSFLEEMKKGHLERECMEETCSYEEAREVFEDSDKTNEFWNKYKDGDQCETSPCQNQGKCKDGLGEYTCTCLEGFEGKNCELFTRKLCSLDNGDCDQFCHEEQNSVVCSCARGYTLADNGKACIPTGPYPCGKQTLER
UniProt P00742, 235-488 limits assumed: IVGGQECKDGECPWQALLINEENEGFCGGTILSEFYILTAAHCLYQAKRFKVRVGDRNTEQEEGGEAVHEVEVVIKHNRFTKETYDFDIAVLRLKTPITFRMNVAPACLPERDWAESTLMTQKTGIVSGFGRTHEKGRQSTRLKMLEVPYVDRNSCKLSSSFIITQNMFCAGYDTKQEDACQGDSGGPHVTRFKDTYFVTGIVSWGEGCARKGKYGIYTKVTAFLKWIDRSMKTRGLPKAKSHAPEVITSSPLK

For one molecule, IC50 results are on record in ChEMBL document CHEMBL3351225, “Design, synthesis, and structure-activity and structure-pharmacokinetic relationship studies of novel [6,6,5] tricyclic fused oxazolidinones leading to the discovery of a potent, selective, and orally bioavailable FXa inhibitor” (J Med Chem, 2014).

Turning to `O=C(NC[C@@H]1OC(=O)N2c3ccc(N4CCCCC4=O)cc3OC[C@@H]12)c1ccc(Cl)s1`, half-maximal inhibition (IC50) was put at 20.2 nM.
